Data published in ChEMBL document CHEMBL2406998, “Discovery of benzamide analogs as negative allosteric modulators of human neuronal nicotinic receptors: pharmacophore modeling and structure-activity relationship studies” (Bioorg Med Chem, 2013).
Calls of active or inactive are those of the source. The rule behind the calls is not given here.

Sequences of proteins named here, by UniProt entry; tags and fusion partners are left off. A change or cut given only in a name is not applied to a line headed by its entry.
UniProt P30926: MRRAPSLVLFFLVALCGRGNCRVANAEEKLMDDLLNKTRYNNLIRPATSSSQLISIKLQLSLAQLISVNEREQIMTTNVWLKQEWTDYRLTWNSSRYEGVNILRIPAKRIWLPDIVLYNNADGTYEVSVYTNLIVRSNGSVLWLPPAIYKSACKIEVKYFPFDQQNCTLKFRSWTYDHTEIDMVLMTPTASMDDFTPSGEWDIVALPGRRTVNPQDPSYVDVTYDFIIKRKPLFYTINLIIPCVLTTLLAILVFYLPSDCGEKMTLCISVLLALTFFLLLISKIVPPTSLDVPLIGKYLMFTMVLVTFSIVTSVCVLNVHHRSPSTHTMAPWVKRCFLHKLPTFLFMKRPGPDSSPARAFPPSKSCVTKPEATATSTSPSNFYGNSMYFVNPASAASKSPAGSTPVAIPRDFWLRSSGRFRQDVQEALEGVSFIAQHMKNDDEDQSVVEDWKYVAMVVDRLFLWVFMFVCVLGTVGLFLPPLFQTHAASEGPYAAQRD
UniProt P32297: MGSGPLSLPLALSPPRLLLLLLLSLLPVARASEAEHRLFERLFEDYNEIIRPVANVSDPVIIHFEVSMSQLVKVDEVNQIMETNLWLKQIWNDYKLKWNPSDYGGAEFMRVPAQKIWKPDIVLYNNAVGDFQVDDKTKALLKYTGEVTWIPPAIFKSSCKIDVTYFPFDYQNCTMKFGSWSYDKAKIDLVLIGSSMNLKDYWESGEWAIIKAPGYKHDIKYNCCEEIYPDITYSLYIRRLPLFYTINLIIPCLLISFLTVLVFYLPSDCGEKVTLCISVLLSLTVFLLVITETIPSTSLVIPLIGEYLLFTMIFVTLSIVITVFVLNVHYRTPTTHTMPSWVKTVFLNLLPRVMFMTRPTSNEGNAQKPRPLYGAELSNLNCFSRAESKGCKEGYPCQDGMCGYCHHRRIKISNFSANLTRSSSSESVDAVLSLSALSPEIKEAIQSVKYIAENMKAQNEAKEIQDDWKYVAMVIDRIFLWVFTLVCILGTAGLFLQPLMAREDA

Molecular target: Neuronal acetylcholine receptor; alpha3/beta4 (Homo sapiens, UniProt P30926+P32297)
Experiment: Agonist activity at human alpha3beta4 nAChR
Type: protein-complex assay
In short: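 HEK tsA201 cells stably expressing the human receptor subtype, plated 24 h ahead at 37 °C, 5% CO2 in supplemented DMEM to a ~100% confluent monolayer. Washed with HEPES-buffered Krebs, loaded 1 h at room temperature with 50% Calcium 5 NW dye. Compounds as HCl salts from 0.01 M DMSO stocks, six concentrations 0.1–100 µM in HBK. Intracellular calcium fluorescence read every 1.5 s (ex 485/em 525 nm).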

| SMILES | Activity |
| --- | --- |
| CCCOc1ccc(C(=O)Nc2cccc(Br)n2)cc1 | inactive |
| C=CCOc1ccc(C(=O)Nc2cccc(Cl)n2)cc1 | inactive |
| CCCOc1ccc(C(=O)Nc2cccc(C)n2)cc1 | inactive |
| CCCOc1ccc(C(=O)Nc2cccc(Cl)n2)cc1 | inactive |
